Data from US8551952B2, “Methods for the treatment and prevention of ocular disorders” (Scynexis, Inc., priority 2006, dated 2013).

Tested on: chorio-allantoic membranes (CAM) of fertilized chicken eggs
Conditions: for Classification: HET-CAM classification of irritation potential; for Coagulation / Haemorhage / Lysis: HET-CAM score, approximately 5 minutes incubation; for Total Score: HET-CAM, sum of scores, average across eggs

## 3-[2-(4-hydroxypiperidin-1-yl)ethoxy]cyclosporin [J]
  Classification: Slightly irritant
  Coagulation: 0
  Haemorhage: 0
  Lysis: 3
  Total Score: 3.0

## 3-[2-(morpholin-4-yl)ethoxy]cyclosporin [F]
  Classification: Slightly irritant
  Coagulation: 0
  Haemorhage: 0
  Lysis: 3
  Total Score: 3.0
